Results published in patent US20150224202A1, “FORMULATIONS AND USES FOR MICROPARTICLE DELIVERY OF ZINC PROTOPORPHYRINS” (priority 2014, published 2015).

Tested on: 3-day-old mouse pups
Test: Effect of light exposure on metalloporphyrin-treated newborn mice (chemical toxicity and phototoxicity)
Details: 3.75 μmol ZnBG/kg BW, 3-day-old pups exposed to light
Experimental: FIG. 2 includes three panels ((A), (B), and (C)), showing the experimental setup for phototoxicity studies. 3-day-old pups (magnified in panel (A)) were given vehicle or Mp IP at doses ranging from 3.75 to 30 μmol/kg body weight (BW) and then exposed for 3 hours to fluorescent light consisting of 2 cool white and 1 blue tubes (as shown in panel (B)) emitting an irradiance of 35.0±1.0 μW/cm^2/nm as measured by a BiliBlanket II Meter (as depicted in panel (C)).
Effect of light exposure on metalloporphyrin-treated newborn mice. […] Pups were either kept in the dark (controls) or exposed to fluorescent light composed of two cool white tubes (F20T12cW) and one blue (TL20W/52) tube for 3 hours (FIG. 2).

Question: With zinc bis glycol porphyrin [ZnBG] as the substance, how does the survival read?
Answer: Its survival is 100%.
